Binding of CDR-mutated scFvs to a peptide of the spike HR2 region

Data: MIT Lincoln Laboratory AlphaSeq set, Li et al. 2023, doi:10.1038/s41467-023-39022-2, as distributed in FLAb.

All variants were tested on one target, the spike HR2 peptide PDVDLGDISGINAS (SARS-CoV-2).

Ab-14 is the parent antibody, in scFv form: VH, then the linker GGGGSGGGGSGGGGS, then VL. The heavy chain is unchanged in all variants.
VH: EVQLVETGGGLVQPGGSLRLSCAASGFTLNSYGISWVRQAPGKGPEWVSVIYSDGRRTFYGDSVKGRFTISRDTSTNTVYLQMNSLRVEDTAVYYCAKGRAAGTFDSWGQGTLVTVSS
VL: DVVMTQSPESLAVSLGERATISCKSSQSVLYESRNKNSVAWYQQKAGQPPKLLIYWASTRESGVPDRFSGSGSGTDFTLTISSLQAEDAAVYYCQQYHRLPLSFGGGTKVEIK

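The parent was found by panning a naive human phage display library on the peptide. These sequences belong to a second round, designed from the earlier measurements on random variants of the parent. Several design methods are mixed in this list. The assay is AlphaSeq: two haploid yeast populations carry antibody and antigen on their surface. Mating (16 h, 30 °C) was followed by selection of diploids and sequencing of their barcodes. Scores were corrected for input abundance and mapped to Kd with protein pairs of known affinity run in the same pool. Each pool was mated in six replicate cultures.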

Positions count from residue 1 of the parent VL; S25V puts V in place of S. This list holds designs with at most six substitutions. Values are apparent Kd, the geometric mean of the replicates that gave a signal; lower means stronger binding. A pair that was not seen in any replicate is written "no signal"; this usually means weak binding, but a binder can also be missed.

* S25V+S33E+W56Q+T59Q: 820 pM (6 of 6 replicates; controls 1 of 18)
* S26I+L30I+N35M+S62A: no signal (0 of 6 replicates; controls 0 of 18)
* S33T+K36E+Q95A: 83 nM (2 of 6 replicates; controls 0 of 18)
* S25L+S26Q+V29W+L30W+W56N: 12 nM (6 of 6 replicates; controls 1 of 18)
* Y31G+W56A: 8.5 nM (6 of 6 replicates; controls 0 of 18)
* Q95M: 830 nM (1 of 6 replicates; controls 0 of 18)
* Q27P+Q95C: no signal (0 of 6 replicates; controls 1 of 18)
* V29E+W56E+T59Q: 1.2 nM (6 of 6 replicates; controls 4 of 18)
* S25L+S26P+V29W+L30G+W56N: 1.3 nM (6 of 6 replicates; controls 1 of 18)
* S25T+S26Y+S28Q+L30E+Y97V: no signal (0 of 6 replicates; controls 1 of 18)
* Y31N+R34D+W56S+Q96W+H98T: 4.8 nM (6 of 6 replicates; controls 0 of 18)
* S26L+W56H+S62D+L102E: no signal (0 of 6 replicates; controls 1 of 18)
* S25F+S28L+N35Q+W56D+T59Q+E61L: 1.6 nM (6 of 6 replicates; controls 0 of 18)
* S25I+V29W+K36S+W56E+S62L+Q96D: 1.3 nM (6 of 6 replicates; controls 3 of 18)
* S26T+R34N+H98A: 28 nM (5 of 6 replicates; controls 0 of 18)
* S25L+S26Q+V29H+N35M+W56N: 2.7 nM (6 of 6 replicates; controls 2 of 18)
* S25V+Q27P+V29F+W56D: 660 pM (6 of 6 replicates; controls 0 of 18)
* S25L+V29D+W56N+S62W: 810 pM (6 of 6 replicates; controls 1 of 18)
* S25F+S26P+V29W+W56N: 200 pM (6 of 6 replicates; controls 1 of 18)
* S25I+R99Y: 200 nM (4 of 6 replicates; controls 1 of 18)
* S25L+N37M+W56N+E61M: 850 pM (6 of 6 replicates; controls 1 of 18)
* S25V+S26E+S28G+Y31D+K36D: 16 nM (6 of 6 replicates; controls 0 of 18)
* S25L+S26Q+V29C+K36P+W56N+E61Y: 5.5 nM (6 of 6 replicates; controls 3 of 18)
* S25Q+Q27E+W56M: 3.1 nM (6 of 6 replicates; controls 0 of 18)
* S25L+W56N+S62V+S103M: 710 pM (6 of 6 replicates; controls 1 of 18)
* L30M+K36S+E61V: 55 nM (6 of 6 replicates; controls 0 of 18)
* S25L+Y31F+E32Q+W56D: 340 pM (6 of 6 replicates; controls 0 of 18)
* S25V+Q27M+N35V+W56N+T59Q+S103I: 1.7 nM (6 of 6 replicates; controls 3 of 18)
* S25C+V29L+W56E: 290 pM (6 of 6 replicates; controls 0 of 18)
* Q27L+Y31D+W56A+R99Q+P101M: 13 nM (6 of 6 replicates; controls 0 of 18)
* S25L+R34Q+W56K: 540 pM (6 of 6 replicates; controls 0 of 18)
* S25L+S26Q+W56N+T59E: 650 pM (6 of 6 replicates; controls 2 of 18)
* S26P+W56N+T59Q: 2.6 nM (6 of 6 replicates; controls 0 of 18)
* S26G+V29W+W56G: 460 pM (6 of 6 replicates; controls 0 of 18)
* Q27P+K36G+W56N: 780 pM (6 of 6 replicates; controls 0 of 18)
* S25F+S38N+S62D: 57 nM (6 of 6 replicates; controls 0 of 18)
* S25V+S26E+V29H+W56N+T59Q: 830 pM (6 of 6 replicates; controls 0 of 18)
* V29W+W56Y+R60G+Q96L: no signal (0 of 6 replicates; controls 0 of 18)
* E32T+R34E+W56H+T59I: 3.5 nM (6 of 6 replicates; controls 0 of 18)

Excerpt, the final 5 entries:

- Q27P+K36G+W56N: 780 pM (6 of 6 replicates; controls 0 of 18)
- S25F+S38N+S62D: 57 nM (6 of 6 replicates; controls 0 of 18)
- S25V+S26E+V29H+W56N+T59Q: 830 pM (6 of 6 replicates; controls 0 of 18)
- V29W+W56Y+R60G+Q96L: no signal (0 of 6 replicates; controls 0 of 18)
- E32T+R34E+W56H+T59I: 3.5 nM (6 of 6 replicates; controls 0 of 18)

As a blank, each scFv also met three strains without target: over all light chain designs, 4% of these pairings were detected, typically at 430 nM and seldom below 38 nM. Also given: how often the same scFv was detected with the empty control strains. The authors' rule: three or more of the six replicates give a measured affinity, fewer mean a poor binder. Values of this round are not directly comparable with the first-round values of the same sequences.